From article PMC10682951, “Structure-function and rational design of a spider toxin Ssp1a at human voltage-gated sodium channel subtypes” (Frontiers in Pharmacology, 2023)

The chains behind the UniProt entries cited, without tags or fusion partners.
UniProt Q99250, whole entry: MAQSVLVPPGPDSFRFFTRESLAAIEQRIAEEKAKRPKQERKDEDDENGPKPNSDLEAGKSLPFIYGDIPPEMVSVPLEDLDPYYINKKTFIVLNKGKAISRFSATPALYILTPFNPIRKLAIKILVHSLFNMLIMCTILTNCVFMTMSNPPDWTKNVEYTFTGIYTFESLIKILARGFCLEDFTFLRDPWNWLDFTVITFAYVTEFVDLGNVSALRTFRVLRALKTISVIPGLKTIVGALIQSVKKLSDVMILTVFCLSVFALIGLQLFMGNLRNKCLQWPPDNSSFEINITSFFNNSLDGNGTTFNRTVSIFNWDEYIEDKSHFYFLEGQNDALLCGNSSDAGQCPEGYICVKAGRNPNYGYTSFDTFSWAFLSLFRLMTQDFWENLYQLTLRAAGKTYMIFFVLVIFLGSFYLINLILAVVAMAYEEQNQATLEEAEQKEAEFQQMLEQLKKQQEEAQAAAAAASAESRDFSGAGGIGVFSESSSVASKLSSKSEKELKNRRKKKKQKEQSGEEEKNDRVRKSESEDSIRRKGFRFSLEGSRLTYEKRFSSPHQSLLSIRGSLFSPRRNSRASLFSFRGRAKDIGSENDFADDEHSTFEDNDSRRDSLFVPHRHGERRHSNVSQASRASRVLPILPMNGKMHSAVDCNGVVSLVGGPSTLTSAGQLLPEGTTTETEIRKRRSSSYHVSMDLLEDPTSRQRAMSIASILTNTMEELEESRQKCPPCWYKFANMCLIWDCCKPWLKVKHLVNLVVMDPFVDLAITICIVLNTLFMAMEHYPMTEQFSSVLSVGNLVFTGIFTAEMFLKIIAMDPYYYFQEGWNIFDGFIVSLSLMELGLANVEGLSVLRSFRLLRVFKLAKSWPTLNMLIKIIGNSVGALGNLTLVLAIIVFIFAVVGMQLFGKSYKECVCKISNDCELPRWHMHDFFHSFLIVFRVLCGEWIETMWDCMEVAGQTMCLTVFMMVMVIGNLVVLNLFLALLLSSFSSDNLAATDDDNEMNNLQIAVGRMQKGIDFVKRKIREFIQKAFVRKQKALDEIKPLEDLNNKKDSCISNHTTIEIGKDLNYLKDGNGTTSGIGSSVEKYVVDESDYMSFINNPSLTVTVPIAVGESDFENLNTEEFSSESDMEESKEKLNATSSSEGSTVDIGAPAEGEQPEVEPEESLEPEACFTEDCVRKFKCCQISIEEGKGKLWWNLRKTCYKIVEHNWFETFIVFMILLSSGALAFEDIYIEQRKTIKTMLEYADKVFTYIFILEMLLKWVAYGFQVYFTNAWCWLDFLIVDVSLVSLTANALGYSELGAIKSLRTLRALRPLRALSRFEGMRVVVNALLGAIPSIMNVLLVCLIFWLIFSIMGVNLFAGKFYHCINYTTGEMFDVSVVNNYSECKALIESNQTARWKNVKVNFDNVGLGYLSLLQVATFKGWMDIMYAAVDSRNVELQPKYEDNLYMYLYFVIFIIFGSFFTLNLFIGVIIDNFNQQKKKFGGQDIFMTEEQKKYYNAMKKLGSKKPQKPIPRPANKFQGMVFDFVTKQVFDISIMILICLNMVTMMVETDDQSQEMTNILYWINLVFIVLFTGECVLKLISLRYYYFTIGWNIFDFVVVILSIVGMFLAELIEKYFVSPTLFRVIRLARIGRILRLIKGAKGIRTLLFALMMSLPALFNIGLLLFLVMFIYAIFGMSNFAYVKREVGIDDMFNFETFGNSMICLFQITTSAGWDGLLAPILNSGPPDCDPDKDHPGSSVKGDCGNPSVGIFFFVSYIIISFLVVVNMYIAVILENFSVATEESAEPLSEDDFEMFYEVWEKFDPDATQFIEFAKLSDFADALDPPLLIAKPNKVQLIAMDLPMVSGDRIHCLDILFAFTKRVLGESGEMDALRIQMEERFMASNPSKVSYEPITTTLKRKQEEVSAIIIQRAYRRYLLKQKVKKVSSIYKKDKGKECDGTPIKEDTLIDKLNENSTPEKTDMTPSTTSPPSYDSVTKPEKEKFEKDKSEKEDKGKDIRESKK
UniProt Q9NY46, whole entry: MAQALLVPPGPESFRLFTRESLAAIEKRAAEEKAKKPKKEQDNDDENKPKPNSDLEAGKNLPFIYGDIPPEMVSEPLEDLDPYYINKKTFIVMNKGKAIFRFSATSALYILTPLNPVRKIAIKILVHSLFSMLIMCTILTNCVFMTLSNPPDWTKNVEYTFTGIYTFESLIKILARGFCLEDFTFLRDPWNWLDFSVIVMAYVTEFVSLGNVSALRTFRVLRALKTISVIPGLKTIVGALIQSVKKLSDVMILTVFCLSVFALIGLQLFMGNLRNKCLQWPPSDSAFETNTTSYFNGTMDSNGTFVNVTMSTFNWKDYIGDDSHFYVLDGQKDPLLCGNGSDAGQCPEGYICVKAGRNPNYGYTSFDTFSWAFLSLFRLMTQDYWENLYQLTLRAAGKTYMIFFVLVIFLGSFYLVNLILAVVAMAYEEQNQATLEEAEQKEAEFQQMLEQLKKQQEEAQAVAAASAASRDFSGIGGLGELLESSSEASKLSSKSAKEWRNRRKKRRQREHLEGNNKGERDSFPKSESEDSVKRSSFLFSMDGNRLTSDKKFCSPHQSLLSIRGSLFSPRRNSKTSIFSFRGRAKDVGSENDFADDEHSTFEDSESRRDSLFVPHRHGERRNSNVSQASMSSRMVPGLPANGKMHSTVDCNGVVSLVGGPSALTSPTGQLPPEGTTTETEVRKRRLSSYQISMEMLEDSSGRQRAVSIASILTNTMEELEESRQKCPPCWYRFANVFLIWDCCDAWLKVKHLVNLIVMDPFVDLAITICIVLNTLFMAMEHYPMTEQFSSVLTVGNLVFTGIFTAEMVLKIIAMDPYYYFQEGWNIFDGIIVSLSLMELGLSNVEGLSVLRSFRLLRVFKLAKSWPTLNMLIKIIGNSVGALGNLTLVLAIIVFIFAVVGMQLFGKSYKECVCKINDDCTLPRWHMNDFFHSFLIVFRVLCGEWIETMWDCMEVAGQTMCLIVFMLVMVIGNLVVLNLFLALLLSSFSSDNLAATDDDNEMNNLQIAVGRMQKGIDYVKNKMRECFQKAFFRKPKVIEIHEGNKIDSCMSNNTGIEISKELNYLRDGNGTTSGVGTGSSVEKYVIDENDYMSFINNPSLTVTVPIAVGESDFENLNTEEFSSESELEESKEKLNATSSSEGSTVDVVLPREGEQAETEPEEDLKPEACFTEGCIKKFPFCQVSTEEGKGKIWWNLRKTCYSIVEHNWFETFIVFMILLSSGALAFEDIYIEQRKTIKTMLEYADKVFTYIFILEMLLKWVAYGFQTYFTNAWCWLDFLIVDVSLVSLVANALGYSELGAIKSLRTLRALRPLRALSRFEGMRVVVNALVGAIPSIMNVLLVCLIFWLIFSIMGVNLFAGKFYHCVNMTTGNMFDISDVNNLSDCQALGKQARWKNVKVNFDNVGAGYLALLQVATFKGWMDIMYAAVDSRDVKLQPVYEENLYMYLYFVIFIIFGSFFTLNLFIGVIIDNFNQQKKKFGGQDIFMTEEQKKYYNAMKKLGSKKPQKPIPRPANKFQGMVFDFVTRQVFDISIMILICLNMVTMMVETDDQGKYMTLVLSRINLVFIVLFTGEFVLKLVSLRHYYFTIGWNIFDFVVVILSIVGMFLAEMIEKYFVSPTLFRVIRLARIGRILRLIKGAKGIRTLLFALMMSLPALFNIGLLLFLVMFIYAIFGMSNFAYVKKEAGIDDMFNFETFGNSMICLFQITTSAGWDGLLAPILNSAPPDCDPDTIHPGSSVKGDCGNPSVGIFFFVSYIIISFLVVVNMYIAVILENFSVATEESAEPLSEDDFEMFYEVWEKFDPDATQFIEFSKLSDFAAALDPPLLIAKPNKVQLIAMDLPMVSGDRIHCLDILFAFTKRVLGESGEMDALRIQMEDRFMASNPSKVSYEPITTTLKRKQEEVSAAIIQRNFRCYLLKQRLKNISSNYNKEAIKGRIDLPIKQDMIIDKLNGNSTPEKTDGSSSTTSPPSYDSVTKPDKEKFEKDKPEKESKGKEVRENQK
UniProt Q15858, whole entry: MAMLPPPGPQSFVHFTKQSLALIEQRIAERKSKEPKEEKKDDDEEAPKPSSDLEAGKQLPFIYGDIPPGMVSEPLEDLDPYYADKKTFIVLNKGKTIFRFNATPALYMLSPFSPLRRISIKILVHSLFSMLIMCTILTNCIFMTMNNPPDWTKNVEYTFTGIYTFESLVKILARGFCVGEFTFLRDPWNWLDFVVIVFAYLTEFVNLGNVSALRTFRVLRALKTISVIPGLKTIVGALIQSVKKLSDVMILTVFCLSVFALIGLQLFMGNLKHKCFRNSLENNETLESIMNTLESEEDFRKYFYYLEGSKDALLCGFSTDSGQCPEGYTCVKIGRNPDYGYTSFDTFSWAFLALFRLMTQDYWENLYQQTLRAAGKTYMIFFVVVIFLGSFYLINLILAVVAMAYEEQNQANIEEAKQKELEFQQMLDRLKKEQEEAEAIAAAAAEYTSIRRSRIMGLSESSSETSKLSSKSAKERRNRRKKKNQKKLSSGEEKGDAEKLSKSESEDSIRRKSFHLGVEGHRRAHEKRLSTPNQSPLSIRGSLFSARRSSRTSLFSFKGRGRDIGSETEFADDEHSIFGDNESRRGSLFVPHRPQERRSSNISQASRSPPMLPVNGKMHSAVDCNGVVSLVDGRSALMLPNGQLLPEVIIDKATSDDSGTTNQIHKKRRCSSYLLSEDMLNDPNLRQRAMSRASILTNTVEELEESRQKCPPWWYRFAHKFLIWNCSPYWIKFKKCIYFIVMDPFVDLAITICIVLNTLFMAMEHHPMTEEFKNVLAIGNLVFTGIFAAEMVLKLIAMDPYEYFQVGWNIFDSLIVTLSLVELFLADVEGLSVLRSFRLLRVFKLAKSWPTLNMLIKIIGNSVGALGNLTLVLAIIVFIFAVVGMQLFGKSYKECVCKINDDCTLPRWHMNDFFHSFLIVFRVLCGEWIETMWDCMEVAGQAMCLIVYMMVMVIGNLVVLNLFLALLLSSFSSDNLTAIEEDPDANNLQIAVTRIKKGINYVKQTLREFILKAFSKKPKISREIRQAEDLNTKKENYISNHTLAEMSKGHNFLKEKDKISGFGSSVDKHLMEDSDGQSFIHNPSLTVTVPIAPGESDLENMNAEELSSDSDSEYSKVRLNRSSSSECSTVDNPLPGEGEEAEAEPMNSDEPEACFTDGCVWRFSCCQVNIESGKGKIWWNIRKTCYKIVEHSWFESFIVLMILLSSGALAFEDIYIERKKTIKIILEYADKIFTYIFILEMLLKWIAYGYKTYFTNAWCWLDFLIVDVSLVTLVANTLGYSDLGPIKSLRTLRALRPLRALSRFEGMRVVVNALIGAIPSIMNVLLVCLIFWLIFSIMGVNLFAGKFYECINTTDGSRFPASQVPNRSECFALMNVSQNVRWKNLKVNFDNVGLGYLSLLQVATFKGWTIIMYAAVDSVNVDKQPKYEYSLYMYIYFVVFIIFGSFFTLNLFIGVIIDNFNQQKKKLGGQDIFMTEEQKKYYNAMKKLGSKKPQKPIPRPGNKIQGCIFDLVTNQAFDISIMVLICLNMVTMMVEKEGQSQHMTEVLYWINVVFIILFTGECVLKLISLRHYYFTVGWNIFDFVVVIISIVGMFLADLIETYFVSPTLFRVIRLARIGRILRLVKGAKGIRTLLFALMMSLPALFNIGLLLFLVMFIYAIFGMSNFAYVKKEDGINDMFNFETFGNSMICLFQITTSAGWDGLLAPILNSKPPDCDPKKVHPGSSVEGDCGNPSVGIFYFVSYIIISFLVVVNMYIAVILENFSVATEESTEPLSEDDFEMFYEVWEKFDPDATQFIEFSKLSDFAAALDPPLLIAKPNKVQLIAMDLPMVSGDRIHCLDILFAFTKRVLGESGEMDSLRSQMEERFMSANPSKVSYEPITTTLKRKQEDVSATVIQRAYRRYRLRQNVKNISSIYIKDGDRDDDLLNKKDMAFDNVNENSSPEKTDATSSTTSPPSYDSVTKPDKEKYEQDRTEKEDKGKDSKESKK

How the values were obtained:
Format in all cases: cell-based
[1] = target: T1, hNaV1.2 (Homo sapiens, UniProt Q99250); test: Automated whole-cell patch-clamp (QPatch 16X), hNaV1.2; settings: HEK293 cells expressing hNaV1.2 + β1 subunit, holding −80 mV, step to 0 mV, peptide incubated 2 min, 0.1% BSA, mean, SEM and n (2-7)
T1 construct: host or cells: HEK293
Method: (§1) Human embryonic kidney 293 (HEK293) cells stably expressing recombinant hNaV1.2, hNaV1.3 and hNaV1.7 and the β1 auxiliary subunit (Scottish Biomedical Drug Discovery, Glasgow, UK) were cultured in Minimal Essential medium (MEM) (Sigma-Aldrich, MO, United States) supplemented with 10% v/v FBS-New Zealand origin (Assay Matrix), 2 mM L-glutamine and selection antibiotics as per manufacturer’s recommendation. The HEK293 cells heterologously expressing mNaV1.7 and F813G-mNaV1.7 were generously provided by Prof Irina Vetter and were cultured in Minimal Essential medium (MEM) (Sigma-Aldrich, MO, United States) supplemented with 10% v/v FBS-New Zealand origin (Assay Matrix), 2 mM L-glutamine and hygromycin 100 μg/mL.
(§2) NaV channel currents from HEK293 cells stably expressing NaV subtypes and the β1 auxiliary subunit were recorded using an automated whole-cell patch clamp system QPatch 16X (Sophion Bioscience A/S, Ballerup, Denmark). […]
(§3) The experimental data were analysed using QPatch Assay software v5.6.4 and GraphPad Prism 7.0 using a four-parameter Hill equation [Y = Bottom + (Top—Bottom)/(1 + 10^(Log IC50—X)* Hillslope)] to fit concentration response curves by non-linear regression analysis and Student’s t-test. […]

[2] = target: T2, hNaV1.3 (Homo sapiens, UniProt Q9NY46); test: Automated whole-cell patch-clamp (QPatch 16X), hNaV1.3; settings: HEK293 cells expressing hNaV1.3 + β1 subunit, holding −80 mV, step to 0 mV, peptide incubated 2 min, 0.1% BSA, mean, SEM and n (3-12)
T2 construct: host or cells: HEK293
Method: as §1, §2, §3

[3] = target: T3, hNaV1.7 (Homo sapiens, UniProt Q15858); test: Automated whole-cell patch-clamp (QPatch 16X), hNaV1.7; settings: HEK293 cells expressing hNaV1.7 + β1 subunit, holding −80 mV, step to 0 mV, peptide incubated 2 min, 0.1% BSA, mean, SEM and n (3-9)
T3 construct: host or cells: HEK293
Method: as §1, §2, §3

[4] = target: T4, mNaV1.7 WT (Mus musculus, UniProt Q62205); test: Automated whole-cell patch-clamp, wild type mNaV1.7; settings: HEK293 cells expressing mNaV1.7, QPatch, mean ± SEM
T4 construct: expressed in transfected cells; host or cells: HEK293 (gift of Prof Irina Vetter)
Method: as §1, §2, §3

[5] = target: T5, F823G-mNaV1.7 (Mus musculus, UniProt Q62205, F823G); test: Automated whole-cell patch-clamp, F823G-mNaV1.7 variant
T5 construct: expressed in transfected cells; host or cells: HEK293 (gift of Prof Irina Vetter)
Method: as §1, §2, §3

SMILES | IC50 [1] | IC50 [2] | IC50 [3] | IC50 [4] | Decrease of mNaV1.7 sensitivity by F823G mutation ([5]; F823G vs wild type mNaV1.7) | IC50 ([5]; HEK293 cells expressing F823G-mNaV1.7 (F823 corresponds to F813 in hNaV1.7), QPatch, mean ± SEM, SEM)
CC(C)C[C@H](NC(=O)[C@H](CC(C)C)NC(=O)[C@H](CC(C)C)NC(=O)[C@H](CC(=O)O)NC(=O)[C@H](Cc1ccc(O)cc1)NC(=O)[C@H](CCCNC(=N)N)NC(=O)[C@@H]1CSSC[C@@H]2NC(=O)[C@H](CCCCN)NC(=O)[C@H](CC(N)=O)NC(=O)[C@H](CC(N)=O)NC(=O)[C@H](CC(N)=O)NC(=O)[C@@H]3CCCN3C(=O)[C@H](CC(=O)O)NC(=O)[C@@H]3CSSC[C@H](NC(=O)[C@H](C(C)C)NC(=O)[C@H](Cc4ccc(O)cc4)NC(=O)CNC(=O)[C@H](CCC(=O)O)NC(=O)[C@H](CSSC[C@H](NC(=O)[C@H](CC(=O)O)NC(=O)CN)C(=O)N[C@@H](CC(C)C)C(=O)NCC(=O)N[C@@H](Cc4c[nH]c5ccccc45)C(=O)N[C@@H](Cc4ccccc4)C(=O)N[C@@H](CO)C(=O)NCC(=O)N3)NC2=O)C(=O)N[C@@H](Cc2c[nH]cn2)C(=O)N[C@@H](Cc2c[nH]c3ccccc23)C(=O)N[C@@H](CCCCN)C(=O)N[C@@H](Cc2c[nH]cn2)C(=O)N2CCC[C@H]2C(=O)N[C@@H](Cc2c[nH]c3ccccc23)C(=O)N1)C(=O)O [Y26H-LL] | 410 nM | 1630 nM | 175 nM | – | – | –
CC(C)C[C@@H]1NC(=O)[C@@H](NC(=O)[C@H](CC(=O)O)NC(=O)CN)CSSC[C@@H]2NC(=O)[C@@H]3CSSC[C@@H](C(=O)N[C@@H](CCCNC(=N)N)C(=O)N[C@@H](Cc4ccc(O)cc4)C(=O)N[C@@H](CC(=O)O)C(=O)N[C@@H](CC(C)C)C(=O)NCC(=O)N[C@@H](CCCCN)C(=O)O)NC(=O)[C@H](Cc4c[nH]c5ccccc45)NC(=O)[C@@H]4CCCN4C(=O)[C@H](Cc4ccc(O)cc4)NC(=O)[C@H](CCCCN)NC(=O)[C@H](Cc4c[nH]c5ccccc45)NC(=O)[C@H](Cc4c[nH]cn4)NC(=O)[C@H](CSSC[C@H](NC(=O)CNC(=O)[C@H](CO)NC(=O)[C@H](Cc4ccccc4)NC(=O)[C@H](Cc4c[nH]c5ccccc45)NC(=O)CNC1=O)C(=O)N[C@@H](CC(=O)O)C(=O)N1CCC[C@H]1C(=O)N[C@@H](CC(N)=O)C(=O)N[C@@H](CC(N)=O)C(=O)N[C@@H](CC(N)=O)C(=O)N[C@@H](CCCCN)C(=O)N3)NC(=O)[C@H](C(C)C)NC(=O)[C@H](Cc1ccc(O)cc1)NC(=O)CNC(=O)[C@H](CCC(=O)O)NC2=O [rSsp1a-GK] | 426 nM | 654 nM | 180 nM | – | – | –
CC(C)C[C@H](NC(=O)[C@H](CC(=O)O)NC(=O)[C@H](Cc1ccc(O)cc1)NC(=O)[C@H](CCCNC(=N)N)NC(=O)[C@@H]1CSSC[C@@H]2NC(=O)[C@H](CCCCN)NC(=O)[C@H](CC(N)=O)NC(=O)[C@H](CC(N)=O)NC(=O)[C@H](CC(N)=O)NC(=O)[C@@H]3CCCN3C(=O)[C@H](CC(=O)O)NC(=O)[C@@H]3CSSC[C@H](NC(=O)[C@H](C(C)C)NC(=O)[C@H](Cc4ccc(O)cc4)NC(=O)CNC(=O)[C@H](CCC(=O)O)NC(=O)[C@H](CSSC[C@H](NC(=O)[C@H](CC(=O)O)NC(=O)CN)C(=O)N[C@@H](CC(C)C)C(=O)NCC(=O)N[C@@H](Cc4c[nH]c5ccccc45)C(=O)N[C@@H](Cc4ccccc4)C(=O)N[C@@H](CO)C(=O)NCC(=O)N3)NC2=O)C(=O)N[C@@H](Cc2c[nH]cn2)C(=O)N[C@@H](Cc2c[nH]c3ccccc23)C(=O)N[C@@H](CCCCN)C(=O)N[C@@H](Cc2ccc(O)cc2)C(=O)N2CCC[C@H]2C(=O)N[C@@H](Cc2c[nH]c3ccccc23)C(=O)N1)C(=O)O [rSsp1a] | – | – | – | 208 ± 18 nM | ~2.5 fold | 492 ± 50 nM
